Assay results as given in US5707798A, “Identification of ligands by selective amplification of cells transfected with receptors” (priority 1994, dated 1998).

Chains of the proteins cited; added tags and fusions are not shown.
UniProt P08173, whole entry: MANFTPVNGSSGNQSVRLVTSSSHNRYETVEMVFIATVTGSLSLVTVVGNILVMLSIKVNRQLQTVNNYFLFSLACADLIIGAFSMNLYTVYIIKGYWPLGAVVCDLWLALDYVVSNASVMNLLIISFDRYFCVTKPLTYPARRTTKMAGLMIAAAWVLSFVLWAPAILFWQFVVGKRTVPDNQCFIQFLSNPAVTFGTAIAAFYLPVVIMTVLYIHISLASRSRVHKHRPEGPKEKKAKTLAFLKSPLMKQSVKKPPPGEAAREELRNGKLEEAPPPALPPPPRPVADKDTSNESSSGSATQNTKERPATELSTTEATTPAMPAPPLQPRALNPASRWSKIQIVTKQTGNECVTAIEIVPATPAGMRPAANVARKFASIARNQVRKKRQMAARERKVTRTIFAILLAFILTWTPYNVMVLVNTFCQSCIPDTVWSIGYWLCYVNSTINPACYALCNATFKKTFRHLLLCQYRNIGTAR
UniProt P18089, whole entry: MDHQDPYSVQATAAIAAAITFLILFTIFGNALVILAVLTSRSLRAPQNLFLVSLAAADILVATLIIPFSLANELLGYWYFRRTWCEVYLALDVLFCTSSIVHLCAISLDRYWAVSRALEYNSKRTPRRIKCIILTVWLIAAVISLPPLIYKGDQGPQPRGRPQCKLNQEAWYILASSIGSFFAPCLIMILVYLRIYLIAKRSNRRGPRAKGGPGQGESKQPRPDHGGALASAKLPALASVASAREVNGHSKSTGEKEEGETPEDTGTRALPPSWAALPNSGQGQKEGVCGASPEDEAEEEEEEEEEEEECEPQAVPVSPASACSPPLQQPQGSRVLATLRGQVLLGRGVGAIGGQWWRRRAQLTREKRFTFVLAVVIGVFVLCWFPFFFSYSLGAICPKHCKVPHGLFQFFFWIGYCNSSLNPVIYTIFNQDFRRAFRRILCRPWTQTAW

How the values were obtained:
m4 muscarinic receptor = m4 muscarinic receptor (Homo sapiens, UniProt P08173); details: m4 + Gq-i5, % of carbachol response (10 μM)
[1] = biological target: alpha 2 C2 adrenergic receptor (Homo sapiens, UniProt P18089)

SMILES	% Max (m4 muscarinic receptor)	EC50 [1]
C[N+](C)(C)CCOC(N)=O [carbachol]	100%	–
Clc1cc(I)cc(Cl)c1N=C1NCCN1 [p-I-Clonidine]	–	50 nM
Nc1cc(Cl)c(N=C2NCCN2)c(Cl)c1 [p-NH2-Clonidine]	–	400 nM
